From ChEMBL document CHEMBL1671781, “Discovery and biological characterization of (2R,4S)-1'-acetyl-N-{(1R)-1-[3,5-bis(trifluoromethyl)phenyl]ethyl}-2-(4-fluoro-2-methylphenyl)-N-methyl-4,4'-bipiperidine-1-carboxamide as a new potent and selective neurokinin 1 (NK1) receptor antagonist clinical candidate” (J Med Chem, 2011) come the findings set out here.

Chains of the proteins cited; added tags and fusions are not shown.
UniProt P25103, whole entry: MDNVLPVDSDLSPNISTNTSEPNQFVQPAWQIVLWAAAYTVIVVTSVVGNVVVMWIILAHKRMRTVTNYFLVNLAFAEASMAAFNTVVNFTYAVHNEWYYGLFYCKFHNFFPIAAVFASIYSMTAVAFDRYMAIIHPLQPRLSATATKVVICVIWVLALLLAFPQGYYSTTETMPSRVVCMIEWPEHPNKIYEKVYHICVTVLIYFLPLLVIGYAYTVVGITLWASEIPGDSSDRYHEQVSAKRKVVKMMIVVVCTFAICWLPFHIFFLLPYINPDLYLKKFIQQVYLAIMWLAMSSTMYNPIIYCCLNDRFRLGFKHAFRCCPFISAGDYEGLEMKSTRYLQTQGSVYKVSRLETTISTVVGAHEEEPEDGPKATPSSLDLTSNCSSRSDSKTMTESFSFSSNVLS

The Ki is a measure of affinity in units of concentration, obtained from inhibition or displacement. Higher therefore signals a looser hold on the target.

The structures appear in SMILES notation.

Assay [1] addresses T1, Substance-P receptor (Homo sapiens, UniProt P25103). Nature of the assay: Displacement of [3H]GR205171 from human NK1 receptor in cortex homogenate by liquid scintillation counting. (In general: Loss of bound radioactivity is the signal in a displacement assay; it reports binding, not function.)
Assay [2] deals with T1, Substance-P receptor. Put plainly: Displacement of [3H]SP from human NK1 receptor expressed in CHO cells by liquid scintillation counting. The format is cell-based.

In the case of `CC(=O)N1CCN([C@H]2CCN(C(=O)N(C)[C@H](C)c3cc(C(F)(F)F)cc(C(F)(F)F)c3)[C@@H](c3ccc(F)cc3C)C2)CC1` [CASOPITANT], the Ki at Substance-P receptor [1] is 0.126 nM; at Substance-P receptor [2] it was 0.331 nM.
